Binding of CDR-mutated scFvs to a peptide of the spike HR2 region

The measurements come from Engelhart et al. 2022 (doi:10.1038/s41597-022-01779-4) through the FLAb antibody collection.

Binding partner: SARS-CoV-2 spike HR2 peptide, sequence PDVDLGDISGINAS.

Parent: Ab-91, a human scFv built as VL, a 15-residue (Gly4Ser)3 linker, VH. Only the CDRs of the heavy chain vary.
VL: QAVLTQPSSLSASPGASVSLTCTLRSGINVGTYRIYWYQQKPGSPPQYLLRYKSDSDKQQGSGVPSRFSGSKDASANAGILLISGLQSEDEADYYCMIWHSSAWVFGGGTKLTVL
VH: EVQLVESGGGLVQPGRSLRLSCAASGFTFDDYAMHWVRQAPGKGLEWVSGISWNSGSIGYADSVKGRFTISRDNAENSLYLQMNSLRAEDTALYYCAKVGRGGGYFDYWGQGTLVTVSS

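Phage display of a naive human antibody library on the peptide gave the parent. Library AAYL51 holds single substitutions and randomly drawn double and triple substitutions in the CDRs. Affinity was read by AlphaSeq, a pooled yeast mating assay with surface-displayed partners. Binding brings cells together so that they mate, and sequencing counts the barcode pairs among the diploids. The ratio of observed to expected reads was calibrated, replicate by replicate, on BCL2-family standards whose Kd was known from biolayer interferometry. Mating was done three times.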

Sequences are complete VH domains.
Affinities are written as log10 Kd with Kd in nM; a lower number is a better binder.
A mean of the replicates is given; it leaves out those without a signal.
Where no diploid with the target was found in that replicate, the entry reads "nd": below detection, most likely a poor binder, though not proof of it.

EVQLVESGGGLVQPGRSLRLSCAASIFTFDDYAMHWVRQAPGKGLEWVSGISWNSGSIGYAESVKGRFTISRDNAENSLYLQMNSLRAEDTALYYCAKNGRGGGYFDYWGQGTLVTVSS: nd, nd, nd (controls 0 of 9).
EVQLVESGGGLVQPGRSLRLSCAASDFTFKDYAMHWVRQAPGKGLEWVSGISWNSGSIGYADSVKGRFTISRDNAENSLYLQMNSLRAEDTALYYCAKVGRGGGYFDHWGQGTLVTVSS: 1.23, 1.20, 0.86 (mean 1.09; controls 1 of 9).
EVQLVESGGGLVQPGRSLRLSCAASGFTFDDYAMGWVRQAPGKGLEWVSGISWNSGSIGYAVSVKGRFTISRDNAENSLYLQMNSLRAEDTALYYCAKVGRGGGYFDYWGQGTLVTVSS: 3.72, 4.59, nd (mean 4.16; controls 4 of 9).
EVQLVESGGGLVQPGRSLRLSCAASGFTFDDYAMHWVRQAPGKGLEWVSGISWNSGCIGYADSVKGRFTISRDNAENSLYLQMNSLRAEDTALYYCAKVGRGGMYYDYWGQGTLVTVSS: 4.53, nd, nd (controls 2 of 9).
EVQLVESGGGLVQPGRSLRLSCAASGFTFDDSAMHWVRQAPGKGLEWVSGISWNSGSIGYADSVKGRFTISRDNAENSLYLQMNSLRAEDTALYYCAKVGNGGGYKDYWGQGTLVTVSS: nd, nd, nd (controls 0 of 9).
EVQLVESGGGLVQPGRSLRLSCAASGFTFDDYAMHWVRQAPGKGLEWVSGISWNSGSIEYGDSVKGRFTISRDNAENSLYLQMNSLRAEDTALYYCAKCGRGGGYFDYWGQGTLVTVSS: nd, nd, nd (controls 0 of 9).
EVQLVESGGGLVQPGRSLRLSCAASGSTFDDYAMHWVRQAPGKGLEWVSGISCNSGSIGYADSVKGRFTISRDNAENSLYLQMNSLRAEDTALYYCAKVHRGGGYFDYWGQGTLVTVSS: 4.42, 4.73, 6.49 (mean 5.21; controls 7 of 9).
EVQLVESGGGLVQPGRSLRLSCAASGFTFDDYAMHWVRQAPGKGLEWVSGISWNSGSGGQADSVKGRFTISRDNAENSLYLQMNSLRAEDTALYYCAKVGRGYGYFDYWGQGTLVTVSS: nd, nd, nd (controls 1 of 9).
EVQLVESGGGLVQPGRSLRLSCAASGFTFDDYAMHWVRQAPGKGLEWVSGISGNSGSIGYACSVKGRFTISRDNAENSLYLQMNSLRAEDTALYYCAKVGRGGGYTDYWGQGTLVTVSS: nd, 5.99, nd (controls 0 of 9).
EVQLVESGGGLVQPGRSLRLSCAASGFTFDPYAMHWVRQAPGKGLEWVSCISWWSGSIGYADSVKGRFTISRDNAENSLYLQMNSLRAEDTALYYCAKVGRGGGYFDYWGQGTLVTVSS: nd, nd, nd (controls 0 of 9).
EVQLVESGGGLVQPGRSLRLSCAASGFTHDDYAMHWVRQAPGKGLEWVSGISWNSGSIGYADSVKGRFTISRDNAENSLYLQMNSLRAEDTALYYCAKVGRGGGYFDYWGQGTLVTVSS: 5.29, nd, nd (controls 3 of 9).
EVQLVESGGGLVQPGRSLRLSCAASGFHFDDYAMHWVRQAPGKGLEWVSGIWWNSGSIGYADSVKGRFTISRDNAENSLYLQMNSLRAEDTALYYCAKVGRCGGYFDYWGQGTLVTVSS: nd, nd, nd (controls 1 of 9).
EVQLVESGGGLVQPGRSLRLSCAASGFTFDDEAMHWVRQAPGKGLEWVSGISSNSGSIGYADSVKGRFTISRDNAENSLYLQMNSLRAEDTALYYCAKVGRGGNYFDYWGQGTLVTVSS: nd, 5.19, nd (controls 0 of 9).
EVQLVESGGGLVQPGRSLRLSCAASGFTLDDYAMHWVRQAPGKGLEWVSGISWNSGSIGLADSVKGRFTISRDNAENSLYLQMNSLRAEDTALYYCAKVGAGGGYFDYWGQGTLVTVSS: 3.15, nd, nd (controls 1 of 9).
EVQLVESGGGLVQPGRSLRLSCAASGFTFHDYANHWVRQAPGKGLEWVSGISWNSGSIGYALSVKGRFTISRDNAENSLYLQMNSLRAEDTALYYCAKVGRGGGYFDYWGQGTLVTVSS: nd, 4.26, nd (controls 2 of 9).
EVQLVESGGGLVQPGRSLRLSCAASSFTFDDYAMHWVRQAPGKGLEWVSGISWNSGSIGYAPSVKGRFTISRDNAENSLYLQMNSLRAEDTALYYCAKVGRGGGYFDYWGQGTLVTVSS: 4.91, 6.18, 4.31 (mean 5.13; controls 2 of 9).
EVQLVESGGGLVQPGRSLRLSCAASGFTFDDYAPHWVRQAPGKGLEWVSGISWNSGSIGYADSVNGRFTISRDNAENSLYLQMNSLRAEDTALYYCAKVGRGGIYFDYWGQGTLVTVSS: 4.46, nd, nd (controls 1 of 9).
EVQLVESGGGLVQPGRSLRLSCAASGFTFDDYAWHWVRQAPGKGLEWVSGISWNSGSIGYPDKVKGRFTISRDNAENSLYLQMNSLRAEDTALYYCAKVGRGGGYFDYWGQGTLVTVSS: nd, nd, nd (controls 0 of 9).

A selection of 3 entries from above:

{"VH": "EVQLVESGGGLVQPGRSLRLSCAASGFTFDDYAMHWVRQAPGKGLEWVSGISWNSGSGGQADSVKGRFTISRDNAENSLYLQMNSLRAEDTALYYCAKVGRGYGYFDYWGQGTLVTVSS", "log10 Kd, replicates": "nd, nd, nd", "log10 Kd (nM), mean": "nd", "control signals": "1 of 9"}
{"VH": "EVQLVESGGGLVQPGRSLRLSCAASGFTFDDYAMHWVRQAPGKGLEWVSGISGNSGSIGYACSVKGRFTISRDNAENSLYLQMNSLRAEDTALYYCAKVGRGGGYTDYWGQGTLVTVSS", "log10 Kd, replicates": "nd, 5.99, nd", "log10 Kd (nM), mean": "5.99", "control signals": "0 of 9"}
{"VH": "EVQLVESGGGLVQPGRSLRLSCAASGFHFDDYAMHWVRQAPGKGLEWVSGIWWNSGSIGYADSVKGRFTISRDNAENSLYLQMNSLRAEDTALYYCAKVGRCGGYFDYWGQGTLVTVSS", "log10 Kd, replicates": "nd, nd, nd", "log10 Kd (nM), mean": "nd", "control signals": "1 of 9"}

Nonspecific signal, from three strains lacking the peptide, appeared in 21% of pairings of library AAYL51, centred on 4.54 (5% of these signals below 3.26); values are not corrected for it. The control count says in how many pairings with the empty strains this scFv gave a signal.
For reference, the parent read 1.86 as the reference entry and 0.88 as a member of this library.